US20150140059A1 (The Regents of the University of California, priority 2012, published 2015)

Test system: Lewis rats
Experiment: Rat posterolateral intertransverse process spinal fusion at L4-L5
Assay type: in vivo
Method: Thirty-eight 8-week-old male Lewis rats were purchased from Charles River Laboratories (Wilmington, Mass.) and were maintained and housed at the UCLA vivarium in accordance with regulations set forth by the UCLA Office of Protection of Research Subjects. The study was performed under a protocol approved by the UCLA Animal Research Committee (ARC). All animals were euthanized using a standard CO2 chamber 8 weeks after the spinal fusion procedure, and their spines were excised and stored in 40% ethyl alcohol.
Animals were pre-medicated with sustained release buprenorphine thirty minutes prior to surgery and anesthetized with 2% isoflurane administered in oxygen (1 L/min). The surgical site was shaved and disinfected with Betadine and 70% ethanol. Posterolateral intertransverse process spinal fusion at L4-L5 was performed as in prior studies (21,22). The L6 vertebral body was identified using the iliac crest as a landmark. A 4-cm longitudinal midline incision was made through the skin and subcutaneous tissue over L4-L5 down to the lumbodorsal fascia. A 2-cm longitudinal paramedial incision was then made in the paraspinal muscles bilaterally to expose the transverse processes of L4-L5, which were decorticated with a high-speed burr. The surgical site was then irrigated with sterile saline, and 5 mm×5 mm×13 mm pieces of collagen sponge (Helistat, Integra Life Sciences) containing dimethyl sulfoxide (DMSO) control, rhBMP-2, or Oxy149 were placed bilaterally, with each implant spanning the transverse processes. The implants were then covered with the overlying paraspinal muscles and the lumbodorsal fascia and skin were closed with 4-0 Prolene sutures (Ethicon, Inc., Somerville, N.J.). Animals were allowed to ambulate, eat, and drink ad libitum immediately after surgery.
Posteroanterior radiographs of the lumbar spine were taken on each animal at 4, 6, and 8 weeks after surgery using a Faxitron LX60 cabinet radiography system and evaluated blindly by two independent observers employing the following standardized scale: 0, no fusion; 1, unilateral fusion; and 2, complete bilateral fusion. The scores from the observers were added together and only a score of 4 was considered as complete fusion.
Eight weeks after surgery, animals were euthanized and the spines were surgically removed and evaluated by two blinded independent observers for motion between levels. Nonunion was recorded if motion was observed between the facets or transverse processes on either side. Complete fusion was recorded if no motion was observed bilaterally. Spines were scored as either fused or not fused. Unanimous agreement was required to consider complete fusion.
Each removed spine was analyzed by high resolution micro-computed tomography (micro-CT), using a SkyScan 1172 scanner (SkyScan, Belgium) with a voxel isotropic resolution of 20 μm and an X-ray energy of 55 kVp and […] to further assess the fusion rate and observe the fusion mass as we have previously reported (15). Three hundred and sixty projections were acquired over an angular range of 180° with steps of 0.5 with an exposure time of 220 msec/slice. Five frames were averaged at each rotation step to get better signal to noise ratio. A 0.5 mm aluminum filter was used to narrow down the X-ray beam frequency in order to minimize beam hardening artifact. Virtual image slices were reconstructed using the cone-beam reconstruction software version 2.6 based on the Feldkamp algorithm (SkyScan). These settings produced serial cross-sectional 1024×1024 pixel images. Sample re-orientation and 2D visualization were performed using DataViewer (SkyScan). 3D visualization was performed using Dolphin Imaging version 11 (Dolphin Imaging & Management Solutions, Chatsworth, Calif.). Fusion was defined as the bilateral presence of bridging bone between the L4 and L5 transverse processes. The reconstructed images were judged to be fused or not fused by two experienced independent observers. […]

[1] = 5 μg rhBMP-2, at sacrifice (8 weeks)

**Q.** What does the source list for “BMP2: Recombinant human bone morphogenetic protein-2 (rhBMP-2)”?
**A.** bilateral fusion, manual assessment (5 μg rhBMP-2, 8 weeks): all animals; Fusion Rates, Manual Palpation [1]: 100%; Fusion Rates, Micro-CT [1]: 100%; Fusion Rates, X-ray [1]: 100%; bilateral fusion on radiographs (animals) (5 μg rhBMP-2, four weeks): 8/8; adipocytes within the fusion mass, histology (5 μg rhBMP-2, visual inspection of histological specimens): robust formation of adipocytes; trabecular thickness per footnote (5 μg, micro-CT, 8 weeks): 131.131
